Measurements reported in patent publication US20220378936A1, “DELIVERY SYSTEM COMPLEXES COMPRISING A PRECIPITATE OF AN ACTIVE AGENT AND METHODS OF USE” (THE UNIVERSITY OF NORTH CAROLINA AT CHAPEL HILL, priority 2019, published 2022).

Assay: Pharmacokinetics of platinum in orthotopic CRC mice
Type: in vivo, mouse
Conditions: single i.v. injection
From the text: The orthotopic CT26-FL3 colorectal tumor model was established as previously described^31.

O=C1[O][Pt]2([NH][C@@H]3CCCC[C@H]3[NH]2)[O]C1=O [OxP, oxaliplatin]
time post injection over which platinum remained in the plasma: less than 4 h
